Laboratory results as given in patent US20150342943A1, “METHODS OF TREATING LIVER DISEASE” (Gilead Sciences, Inc., priority 2014, published 2015).
Several values for one entry are separate records, joined by “and”; a condition that tells them apart may be missing. Equal values may be shown once. Read-outs that look alike come from different tables or passages of the source.

What was measured:
[1] = tested on: HSCs; test: Quantitative RT-PCR of TGF-β1-induced gene transcription in HSCs; type: cell-based, human
[2] = tested on: male C57BL/6 mice; test: Interventional NASH model (treatment from day 240 of high fat, high cholesterol, high sugar diet); type: in vivo; details: for reduction of COL1α(I) synthesis rate / reduction of COL1α(III) synthesis rate / reduction of COLα1(V) synthesis rate: additional analyses (Table 2)
[3] = tested on: TAA-induced liver fibrosis; test: TAA-induced liver fibrosis; details: in vivo
[4] = tested on: Mdr2^−/− BALB/c; test: Interventional PSC model; type: in vivo, mice
[5] = tested on: Mdr2^−/− PSC model; details: FIG. 22
[6] = tested on: male C57BL/6 mice
[7] = Example 3, 80 days of treatment
[8] = NASH diet with 0.15% Compound 1 at Day 315
[9] = 6 weeks treatment, vs control group
[10] = day 360, vs fast food diet mice

Cc1cc(F)c(C(=O)Nc2cccc(-c3nncn3[C@@H](C)C(F)(F)F)n2)cc1-n1cnc(C2CC2)c1 [Compound 2]
TGF-β1-induced responses in RNA levels of αSMA, COL1α1, TIMP1, and lumican ([1]; pre-treated HSCs, TGF-β1 5 ng/ml for 48 hrs): blocked or inhibited

O=C(Nc1cccc(-c2nncn2C2CC2)c1)c1cc(-n2cnc(C3CC3)c2)ccn1 [Compound 1]
activation of p38 ([2]; 0.15% of compound 1): reduced
AST/ALT, serum cholesterol, and cholesterol/triglyceride ([2]; Example 3): statistically significant improvements
body weight ([2]; Example 3): body weight loss
normalizing fasting blood glucose levels ([2]; Example 3): 17.1%
normalizing insulin levels ([2]; Example 3): 13.7%
synthesis rates of extracellular matrix proteins (Col1a1, Col1a3, and Col1a5) ([2]; Example 3): affected
reduction in hepatic HYP content [2, 7]: 44%
reduction in percent collagen area by 2nd harmonic imaging [2, 7]: 84%
reduction of hepatic steatosis [2, 7]: 33%
reduction of hepatic steatosis ([2]; Example 4, FIG. 23B): 61.9%
HA serum level (ELISA) [2, 8]: 680.9 ± 181.3 ng/mL
HYP [2, 8]: 612 ± 109 µg/mL
HYP synthesis [2, 8]: 5.0 ± 1.9%
IL-6 serum level (ELISA) [2, 8]: 13.7±7 pg/mL and 13.7 ± 7 ^ pg/mL
Insoluble COL1α(I) synthesis [2, 8]: 3 ± 0.7%
Insoluble COL1α(III) synthesis [2, 8]: 4.9 ± 2.0%
Insoluble COLα1(V) synthesis [2, 8]: 4.8 ± 0.4%
OPN serum level (ELISA) [2, 8]: 61.9±23 ng/mL and 61.9 ± 23 ^ ng/mL
Soluble COL1α(I) synthesis [2, 8]: 18.7 ± 5.7%
Soluble COL1α(III) synthesis [2, 8]: 25.7 ± 1.2%
Soluble COLα1(V) synthesis [2, 8]: 10.7 ± 3.1%
TIMP1 serum level (ELISA) [2, 8]: 1841±532.3 pg/mL and 1841 ± 532.3^ pg/mL
αSMA synthesis [2, 8]: 59.6 ± 6.3%
relative hydroxyproline levels ([2]; additional studies, FIG. 30): decrease
steatosis compared to day 0 of the control group ([2]; after treatment): Statistically less
expression of p-p38 ([2]; data not shown): decreased expression
hydroxyproline synthesis ([2]; day 80, D2O labeling (text b311)): 1.8%
positive steatotic area ([2]; day 80, control 20.1%): 7.8%
hepatic hydroxyproline levels ([2]; day 80 of the treatment): 612 µg/g
reduction of circulating ALT ([2]; day 315, vs no treatment): 32.3%
reduction of circulating AST ([2]; day 315, vs no treatment): 20.5%
reduction of circulating cholesterol ([2]; day 315, vs no treatment): 9.4%
fasting insulin levels ([2]; day 315, untreated 422.1 pg/dL): 274.6 pg/dL
fasting blood glucose levels ([2]; day 315, untreated 117.8 mg/dL): 79.1 mg/dL
reduction of p-JNK1 level ([2]; immunoblot, vs untreated mice): 86%
reduction of p-MKK4 level ([2]; immunoblot, vs untreated mice): 53%
reduction of Colα1(I) synthesis ([2]; insoluble fraction, FIG. 24B): 46.2%
reduction of Colα1(III) synthesis ([2]; insoluble fraction, FIG. 24B): 59.8%
reduction of Colα1(V) synthesis ([2]; insoluble fraction, FIG. 24B): 47.1%
reduction of COL1α(I) synthesis rate ([2]; insoluble fraction): 38%
reduction of COL1α(III) synthesis rate ([2]; insoluble fraction): 38%
reduction of COLα1(V) synthesis rate ([2]; insoluble fraction): 60%
reduction of HA level ([2]; serum, vs NASH diet Day 315): 26%
reduction of IL-6 level ([2]; serum, vs NASH diet Day 315): 35%
reduction of OPN level ([2]; serum, vs NASH diet Day 315): 33%
reduction of TIMP1 level ([2]; serum, vs NASH diet Day 315): 41%
reduction of Colα1(I) synthesis ([2]; soluble fraction, FIG. 24A): 38.2%
reduction of Colα1(III) synthesis ([2]; soluble fraction, FIG. 24A): 33.9%
reduction of Colα1(V) synthesis ([2]; soluble fraction, FIG. 24A): 28.2%
reduction of COL1α(I) synthesis rate ([2]; soluble fraction): 31%
reduction of COL1α(III) synthesis rate ([2]; soluble fraction): 37%
reduction of COLα1(V) synthesis rate ([2]; soluble fraction): 45%
TAA-induced fibrosis progression [3]: blocked
reduction of hepatic collagen deposition (hydroxyproline levels) [4, 9]: 37%
reduction of serum ALT levels [4, 9]: 38%
liver weight ([4]; end of study): decreased
portal venous pressure (PVP) ([4]; end of study, control 10.1±0.2): 8.52±0.3 mmHg
TGF-β signaling in hepatic stellate cells [1]: blocked
liver fibrosis by liver hydroxyproline and area of tissue collagen [5]: reduced
fibrosis severity (F-score) ([6]; 90 and 180 days, vs untreated): lower
hepatic steatosis grade ([6]; 90 and 180 days, vs untreated): lower
reduction in liver collagen content (hydroxyproline assay) ([6]; 180 days): 52%
reduction in percent collagen area (PCA) by quantitative morphometry ([6]; 180 days): 71%
reduction of hepatic steatosis ([6]; 180 days): 59.8%
reduction of picrosirius red positive area ([6]; 180 days): 70%
percent area staining positive for picrosirius red ([6]; 180 days, untreated 4.4%): 1.3%
level of hepatic steatosis by histology ([6]; 180 days, untreated 13.7%): 5.5%
ALT ([6]; 270 days): reduction
AST ([6]; 270 days): reduction
AUC glucose during oral glucose tolerance test ([6]; 270 days): no statistically significant differences
AUC insulin levels during oral glucose tolerance test ([6]; 270 days): statistically significant lower
fasting insulin levels ([6]; 270 days): statistically significant lower
serum cholesterol levels ([6]; 270 days): reduction
steatosis and fibrosis progession ([6]; FIGS. 13A and 13B): blocked or prevented
Hepatic HYP levels ([6]; day 360): 471 µg/g
reduction in fasting insulin levels ([6]; day 360): 72%
glucose metabolism ([6]; day 360, FIG. 14): improvement
reduction of AST [6, 10]: 53%
reduction of cholesterol [6, 10]: 34%
reduction of hepatic HYP levels [6, 10]: 49%
body weight gain ([6]; over 270 day treatment, vs high fat diet fed untreated animals): gained less weight
